# Experimental data from patent US6878733B1, “Formulations for pharmaceutical agents ionizable as free acids or free bases” (Sugen, Inc., priority 1999, dated 2005).
# What was measured:
# Type in all cases: physicochemical
# [1] = pH solubility profile; settings: 0.1 M phosphate buffer, thermodynamic from solid
# [2] = Solubility profile at room temperature, HPLC; settings: thermodynamic from solid
# [3] = Solubility of in situ salts versus free acid; settings: buffer pH 8, pH 8.06, aqueous buffer
smiles,measurement,setting,value
"Cc1[nH]c(C=C2C(=O)Nc3ccccc32)c(C)c1CCC(=O)O [3-[2,4-Dimethyl-5-(2-oxo-1,2-dihydro-indol-3-ylidenemethyl)-1H-pyrrol-3-yl]-propionic acid]",solubility,"[1]; pH 8, aqueous buffer, pH of buffer 8.0 (0.1 M phosphate), average pH at equilibrium 8.06",85 µg/mL
same,solubility,"[1]; pH 8.2, aqueous buffer, pH of buffer 8.2 (0.1 M phosphate), pH at equilibrium not tested",130 µg/mL
same,solubility,"[2]; 0.1 M phosphate buffer, aqueous buffer, pH 7 buffer (0.1 M phosphate), average of 2 lots",9 µg/mL
same,solubility,"[2]; 0.1 M phosphate buffer, aqueous buffer, pH 8 buffer (0.1 M phosphate), average of 2 lots",85 µg/mL
same,solubility,"[2]; 0.1 N HCl, simulated gastric fluid",< 0.1 µg/mL
same,solubility,"[2]; aqueous with cosolvent or surfactant or cyclodextrin, 2% Polysorbate - 80",130 µg/mL
same,solubility,"[2]; aqueous with cosolvent or surfactant or cyclodextrin, 2% aqueous Polysorbate - 80",130 µg/mL
same,solubility,"[2]; aqueous with cosolvent or surfactant or cyclodextrin, 10% Propylene glycol in pH 8.2 buffer, average of 2 lots",400 µg/mL
same,solubility,"[2]; aqueous with cosolvent or surfactant or cyclodextrin, 15% PEG 300, 1% Benzyl alcohol in pH 8.2 buffer, average of 2 lots",1800 µg/mL
same,solubility,"[2]; aqueous with cosolvent or surfactant or cyclodextrin, 15% PEG 300 in pH 8.2 buffer, average of 2 lots",1400 µg/mL
same,solubility,"[2]; aqueous with cosolvent or surfactant or cyclodextrin, 30% PEG 300, 1% Benzyl alcohol in pH 8.2 buffer, average of 2 lots",3700 µg/mL
same,solubility,"[2]; aqueous with cosolvent or surfactant or cyclodextrin, 30% PEG 300 in pH 8.2 buffer, average of 2 lots",3200 µg/mL
same,solubility,"[2]; ethanol, organic solvent or mixture",1200 µg/mL
same,solubility,"[2]; methanol, organic solvent or mixture",600 µg/mL
same,solubility,"[2]; organic solvent or mixture, PEG-300, average of 3 lots",6800 µg/mL
same,solubility,"[2]; Water, average of 3 lots, room temperature",30 µg/mL
"Cc1[nH]c(C=C2C(=O)Nc3ccccc32)c(C)c1CCC(=O)O [free acid, 3-[2,4-dimethyl-5-(2-oxo-1,2-dihydro-indol-3-ylidenemethyl)-1H-pyrrol-3-yl]-propionic acid]",solubility,[3],85 µg/mL
